Measured values from ChEMBL document CHEMBL5550134, “An insight into the pharmacology of cysteine/methionine containing peptide drugs” (Eur J Med Chem, 2024).

Key:
[1] = Half life in human; type: ADME
[2] = Subcutaneous bioavailability in human; conditions: in vivo, sc

## CC[C@H](C)[C@H](NC(=O)[C@@H]1CCCN1C(=O)CNC(=O)[C@H](Cc1ccccc1)NC(=O)[C@H](CC(N)=O)NC(=O)[C@H](CC(N)=O)NC(=O)[C@H](CO)NC(=O)[C@H](CO)NC(=O)[C@H](Cc1c[nH]cn1)NC(=O)[C@@H](NC(=O)[C@H](CC(C)C)NC(=O)[C@H](Cc1ccccc1)NC(=O)[C@H](CC(N)=O)NC(=O)[C@H](C)NC(=O)[C@H](CC(C)C)NC(=O)[C@H](CCCNC(=N)N)NC(=O)[C@H](CCC(N)=O)NC(=O)[C@@H](NC(=O)[C@H](C)NC(=O)[C@@H]1CSSC[C@H](NC(=O)[C@@H](N)CCCCN)C(=O)N[C@@H](CC(N)=O)C(=O)N[C@@H]([C@@H](C)O)C(=O)N[C@@H](C)C(=O)N[C@@H]([C@@H](C)O)C(=O)N1)[C@@H](C)O)C(C)C)C(=O)N[C@@H](CC(C)C)C(=O)N1CCC[C@H]1C(=O)N1CCC[C@H]1C(=O)N[C@H](C(=O)N[C@@H](CC(N)=O)C(=O)N[C@H](C(=O)NCC(=O)N[C@@H](CO)C(=O)N[C@@H](CC(N)=O)C(=O)N[C@H](C(=O)N[C@@H](Cc1ccc(O)cc1)C(N)=O)[C@@H](C)O)C(C)C)[C@@H](C)O [PRAMLINTIDE]
[1]
  half-life: 48 min
[2]
  subcutaneous bioavailability: 30%
